Target: T1, recombinant EphA4 ligand binding domain (Homo sapiens, UniProt P54764, C204A)
T1 construct: His tag (N); made in house; host or cells: E. coli Rosetta-Gami B(DE3), pET15b
Experiment: Isothermal titration calorimetry (ITC) against EphA4-LBD
Details: ITC with the ligand binding domain; Table 8
Experimental: Peptides were synthesized by using standard solid-phase synthesis protocol, using the BAL resin as anchoring for the C-terminal amines. Isothermal Titration Calorimetry (ITC) measurements were performed in a reverse fashion by titrating the protein into the ligand solution. Solution nuclear magnetic resonance (NMR) experiments were conducted on a 700 MHz Bruker Avance spectrometer equipped with a TCI cryoprobe. Each protein sample was dissolved into an NMR tube at a final concentration of 20 μM (1% DMSO-d6) in the presence of 20 μM of each compound.
The fragments were transformed into Rosetta-Gami B(DE3) competent cells and grown in LB medium at 37° C. with 100 μg/mL of ampicillin until reaching an OD600 of 0.6-0.7 followed by induction with 0.4 mM IPTG overnight at 20° C. Bacteria were then collected by centrifugation and lysed by sonication at 4° C. […] EphA4 LBD with ^13C^ε/^1H^ε-Met labeled was expressed like previously described but adding a suspension of 100 mg of ^13C^ε/^1H^ε-Methionine in 1 mL of DMSO per liter of LB medium, 10 minutes before induction. […] Transformation, expression, and purification of EphA3-LBD chimera was performed as described above for EphA4-LBD.
Isothermal titration calorimetry (ITC) measurements were performed using the Affinity ITC Autosampler from TA Instruments (New Castle, Del.). […]

Protein sequences, listed by entry. Tags and fused reporters are not part of them. Residues count along the entry.
UniProt P54764, 29-209 C204A: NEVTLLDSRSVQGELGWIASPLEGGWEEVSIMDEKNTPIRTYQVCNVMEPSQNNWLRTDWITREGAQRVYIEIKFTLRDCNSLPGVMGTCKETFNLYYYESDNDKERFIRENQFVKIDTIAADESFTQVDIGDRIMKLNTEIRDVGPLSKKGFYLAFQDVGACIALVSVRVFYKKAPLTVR

With `COc1ccc2[nH]cc(CCNC(=O)[C@H](Cc3ccncc3)NC(=O)[C@H](Cc3ccc(Cl)cc3)NC(=O)[C@H](Cc3c[nH]c4ccc(O)cc34)NC(=O)CCCN)c2c1` [Compound 123C4, reference compound] the Kd was 400 nM.

— patent publication US20230203096A1, “EPHA4 TARGETING COMPOUNDS AND METHODS OF USE THEREOF” (priority 2020, published 2023)
